Source: patent US5973110A, “Cytotoxic T-lymphocyte antigen as cysteine protease inhibitor” (Bayer Corporation, priority 1995, dated 1999)

Target: human liver Cathepsin L (human, UniProt P07711)
Test: enzyme inhibition, Dixon plot of 1/V vs. CTLA-2β concentration at 2.5 and 5 uM Z-Phe-Arg-AMC

B1: recombinant (murine) CTLA-2β, monomeric form (other)
chain: MAAPSPDPSLDNEWKEWKTTFAKAYSLDEERHRRLMWEENKKKIEAHNADYERGKTSFYMGLNQFSDLTPEEFRTNCCGSSMCRGEMAPDLPEYEDLGKNSYLTPGRAQPE
B1 was tested, and the Ki was 22 nM.
